Measurements reported in patent US9345691B2, “Beta-lactam compounds for enhancing T cell-mediated immune responses” (STEM CELL MEDICINE LTD., priority 2011, dated 2016).

Legend:
human CD4 T cells = experiment: Uptake of penicillin-modified albumin by T cells; format: cell-based
Description: To test whether penicillin-modified albumin can enter T cells, human serum albumin was incubated with penicillin, and then dialysed extensively. The resulting penicillin-modified-albumin was incubated with purified human CD4 T cells for 3 hours, and the cells were lysed and tested by western blot with monoclonal Pen 9 antibody. T cells were harvested after 1, 2, or 3 hrs. Cytoplasmic (“Cyto”) and nuclear (“Nucl”) fractions were run on SDS transferred to nitrocellulose and tested with Pen 9 antibody. […] Cytoplasmic and nuclear penicillin-labeled-albumin was seen after 1 hr, and peaked at 3 hr.

[1] = system: encephalitogenic BP10 T-cell line; experiment: Adoptive EAE by BP10 line stimulated in vitro with test substance; format: in vivo, rat; details: BP10 line stimulated 3 days with 5 mg/ml in stimulation medium
Source text: The ability of a compound to enhance T cell activity may be determined, for example, using an in vivo assay testing the effect of a given compound on the severity of adoptive (passive) EAE, namely, EAE which is induced by the injection of activated encephalitogenic T cell line to the model animal. In order to test a compound, the encephalitogenic T cells are activated in the presence of the compound prior to injection. An exemplary procedure is described in the Examples section hereinbelow. Compounds whose incubation with the encephalitogenic T cells prior to injection results in an increased disease severity compared to a disease induced by T cells that were not incubated with the test compound, may be suitable for use according to embodiments of the present invention.
Antigen-specific T-cell lines were established from lymph node cells that had been stimulated with myelin basic protein (MBP; 10 μg/ml) for 3 days in stimulation medium as described below. Following stimulation, the T-cell blasts were isolated on Lympho-prep (Nycomed Pharma, Oslo, Norway) and seeded in propagation medium. Propagation medium was identical to stimulation medium without autologous serum, but supplemented with fetal calf serum 10% and T-cell growth factors from the supernatant of Con A stimulated spleen cells 10% (Mor et al. (1990) J Clin Invest, 85, 1594-1598). Animals were injected intra-peritoneally with 10^7 MBP-stimulated T cells, following 6-8 cycles of in vitro stimulations. It is known that MBP-reactive lines undergo a reduction in pathogenicity after 6 or more in vitro stimulations. In some experiments the BP10 line was stimulated with phorbol myristate acetate (PMA; 50 ng/ml) and ionomycin (500 ng/ml) for 3 days in stimulation medium, without antigen-presenting cells. […]
Treatment with cefuroxime in vivo could affect many different host agents involved in EAE or AA as well as influencing the rats' bacterial flora. […] The activated T cells were then washed to remove the antibiotic, the T cells were injected intra-peritoneally into naïve recipient rats (10^7 per rat), and EAE was scored. […]

Substance | nuclear entry upon T cell activation (human CD4 T cells; T cell activation for 1 hr with PMA and Ionomycin) | time to detection in the nuclei (human CD4 T cells; purified human CD4 T cells, Pen 9 western blot of nuclear fraction) [h] | time of peak of cytoplasmic and nuclear penicillin-labeled-albumin (human CD4 T cells; purified human CD4 T cells, harvested after 1, 2 or 3 hrs) [h] | severity of adoptive EAE (pathogenicity of BP10 line) [1] | severity of adoptive EAE (pathogenicity of BP10 line) ([1]; listed as Penicillin-modified albumin)
penicillin-modified albumin: human serum albumin incubated with penicillin, then dialysed extensively | augmented | ≤ 1 | 3 | enhanced the pathogenicity of the T cells | augments the pathogenicity of BP10 line
unmodified human albumin: human albumin not incubated with penicillin, control protein |  |  |  | no significant effect | 
